Test results as given in patent US20220016215A1, “GIP RECEPTOR AGONIST PEPTIDE COMPOUNDS AND USES THEREOF” (TAKEDA PHAARMACEUTICAL COMPANY LIMITED, priority 2018, published 2022).

Sequences of proteins named here, by UniProt entry; tags and fusion partners are left off. Residues count along the entry.
UniProt P43220, 24-463: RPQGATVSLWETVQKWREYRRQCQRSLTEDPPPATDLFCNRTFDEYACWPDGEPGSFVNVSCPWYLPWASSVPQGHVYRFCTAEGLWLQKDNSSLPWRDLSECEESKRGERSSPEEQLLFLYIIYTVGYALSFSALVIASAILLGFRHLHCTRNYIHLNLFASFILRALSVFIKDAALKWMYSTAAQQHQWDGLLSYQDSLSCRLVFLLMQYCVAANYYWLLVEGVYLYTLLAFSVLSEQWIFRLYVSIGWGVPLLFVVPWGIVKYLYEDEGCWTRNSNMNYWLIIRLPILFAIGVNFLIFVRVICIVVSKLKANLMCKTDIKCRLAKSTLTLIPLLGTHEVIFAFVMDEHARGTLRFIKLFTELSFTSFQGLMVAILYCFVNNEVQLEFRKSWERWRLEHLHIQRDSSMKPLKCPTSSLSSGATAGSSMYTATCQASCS

Key:
human GIPR = molecular target: T1, human GIPR (Homo sapiens, UniProt P48546); test: Agonist activity on human GIPR, CRE-luciferase reporter assay (increase in intracellular cAMP as indicator); format: cell-based; conditions: hGIPR/CRE-LUC/CHO-K1 cells, 4 h incubation; for EC50: read-out: GIPR EC50 nM (A)
T1 construct: expressed in transfected cells
T1 sequence (P48546 22-466): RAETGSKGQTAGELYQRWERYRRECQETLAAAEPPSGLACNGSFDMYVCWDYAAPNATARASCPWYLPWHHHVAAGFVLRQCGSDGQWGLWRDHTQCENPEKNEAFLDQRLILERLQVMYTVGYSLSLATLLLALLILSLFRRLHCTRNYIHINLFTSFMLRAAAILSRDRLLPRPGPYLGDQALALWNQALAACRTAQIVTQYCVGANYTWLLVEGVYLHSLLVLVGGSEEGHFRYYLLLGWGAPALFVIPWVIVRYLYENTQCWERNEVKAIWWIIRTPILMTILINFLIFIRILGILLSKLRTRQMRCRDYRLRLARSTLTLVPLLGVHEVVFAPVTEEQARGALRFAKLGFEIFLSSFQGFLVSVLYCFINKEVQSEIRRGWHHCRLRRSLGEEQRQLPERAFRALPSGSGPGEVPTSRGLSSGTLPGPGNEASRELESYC

human GLP-1R = human GLP-1R (Homo sapiens, UniProt P43220); test: Agonist activity on human GLP-1R, CRE-luciferase reporter assay (increase in intracellular cAMP as indicator); format: cell-based; parameters: expressed in transfected cells; conditions: hGLP-1R/CRE-luc/CHO-K1 cells, 4 h incubation; for EC50: read-out: GLP1R EC50 nM (B)

Row | Substance | GIPR pEC50 (human GIPR) | EC50 (human GIPR) [nM] | GLP1R pEC50 (human GLP-1R) | EC50 (human GLP-1R) [nM]
1 | YAibEGTFISDYS(Lys-(ethylene glycol)2-C15 diacid)ALDKIHQQDFVNWLLAQRG-OH [Compound 32] | 11.77 | 0.0017 | 6.85 | 141
2 | YAibEGTFISDYSIALDK(Lys-(ethylene glycol)2-C15 diacid)HQQDFVNWLLAQRG-OH [Compound 26] |  | 0.001 |  | 
3 | YAibEGTFISDYSIALDKI(Lys-(ethylene glycol)2-C15 diacid)QQDFVNWLLAQRG-OH [Compound 25] |  | < 0.001 |  | 
4 | YAibEGTFISDYSIALDKIHQQ(Lys-(ethylene glycol)2-C15 diacid)FVNWLLAQR-NH2 [Compound 28] |  | < 0.001 | 7.13 | 74.1
5 | YAibEGTFISDYSIALDKIHQQ(Lys-(ethylene glycol)2-C15 diacid)FVNWLLAQRG-OH [Compound 24] |  | < 0.001 | 7.48 | 33.1
6 | YAibEGTFISDYSIALDKIHQQ(Lys-(ethylene glycol)2-C15 diacid)FVNWLLAQRPSSGAPPPS-NH2 [Compound 29] |  | < 0.001 | 7.01 | 97.7
7 | YAibEGTFISDYSIALDKIHQQDFVNWLLAQ(Lys-(ethylene glycol)2-C15 diacid)G-OH [Compound 31] | 11.77 | 0.002 | 6.85 | 141
8 | YAibEGTFISDYSIELDK(Lys-(ethylene glycol)2-C15 diacid)AAQAFIEWLLAQGPSSGAPPPS-NH2 [Compound 20] | 11.82 | 0.002 | 6.37 | 427
9 | YAibEGTFISDYSIELEK(Lys-(ethylene glycol)2-C15 diacid)AQRAFVEWLLAQGPSSGAPPPS-NH2 [Compound 23] |  | 0.001 | 8.57 | 2.69
10 | YAibEGTFTSDYSIAibLDKIAQ(Lys-(ethylene glycol)2-C20 diacid)AFVQWLIAGGPSSGAPPPS-NH2 [Compound 18] |  |  | 11.08 | 
11 | YAibEGTFTSDYSIAibLDKIAQ(Lys-(ethylene glycol)2-C20 diacid)AFVQWLIAGGPSSGAPPPS-NH2 [Compound 34] | 12.00 | 0.001 | 10.77 | < 0.02
12 | YD-AlaEGTFISDYSIAMD(Lys-(OEG-gGlu)2-Oda)IHQQDFVNWLLAQKGKICNDWKHNIIQ-NH2 [Compound 13] | 10.62 | 0.024 | 6.29 | 513
